# Test results as given in patent US11691963B2, “6-heteroaryloxy benzimidazoles and azabenzimidazoles as JAK2 inhibitors” (Ajax Therapeutics, Inc., priority 2020, dated 2023).
# Protein sequences, listed by entry. Tags and fused reporters are not part of them. Residues count along the entry.
# UniProt O60674, 849-1124 Y1007F/Y1008F: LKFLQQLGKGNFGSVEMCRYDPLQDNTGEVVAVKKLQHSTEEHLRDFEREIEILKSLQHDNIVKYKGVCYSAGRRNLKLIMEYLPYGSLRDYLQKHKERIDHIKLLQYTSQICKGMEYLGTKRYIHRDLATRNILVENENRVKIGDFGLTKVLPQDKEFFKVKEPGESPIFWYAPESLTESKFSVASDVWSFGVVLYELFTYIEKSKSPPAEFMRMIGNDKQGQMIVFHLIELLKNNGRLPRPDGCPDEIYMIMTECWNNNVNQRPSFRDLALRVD
# Target: T1, JAK2 (JH1domain-catalytic, Y1007F,Y1008F) kinase (Homo sapiens (Human), UniProt O60674, Y1007F/Y1008F)
# Test: not given
# Conditions: read-out: JAK2 Kd
row,Compound,Kd
1,"N-(4-((7-chloro-2-((1-((1s,3s)-3-methoxycyclobutyl)-5-(perfluoroethyl)-1H-pyrazol-3-yl)amino)-1-methyl-1H-imidazo[4,5-b]pyridin-6-yl)oxy)pyridin-2-yl)acetamide [Example I-159]",< 10 nM

# Same assay, conditions: read-out: JAK2 Kd; JAK2 JH1 domain-catalytic, Y1007F,Y1008F; qPCR readout
row,Kd,Compound
1,< 10 nM,"COc1c(Oc2ccnc(NC(C)=O)c2)cnc2nc(Nc3cc(C(F)(F)F)cn(CCCN4CCOCC4)c3=O)n(C)c12 [Example I-206, N-(4-((7-methoxy-1-methyl-2-((1-(3-morpholinopropyl)-2-oxo-5-(trifluoromethyl)-1,2-dihydropyridin-3-yl)amino)-1H-imidazo[4,5-b]pyridin-6-yl)oxy)pyridin-2-yl)acetamide]"
2,< 10 nM,"CC(=O)Nc1cc(Oc2cnc3nc(Nc4cc5n(n4)CCCC5(C)C)n(C)c3c2Cl)ccn1 [Example I-208, N-(4-((7-chloro-2-((4,4-dimethyl-4,5,6,7-tetrahydropyrazolo[1,5-a]pyridin-2-yl)amino)-1-methyl-1H-imidazo[4,5-b]pyridin-6-yl)oxy)pyridin-2-yl)acetamide]"
3,< 10 nM,"CC(=O)Nc1cc(Oc2cnc3nc(Nc4cc(C(F)(F)F)cn(C)c4=O)n(C)c3c2Cl)ccn1 [Example I-210, N-(4-((7-chloro-1-methyl-2-((1-methyl-2-oxo-5-(trifluoromethyl)-1,2-dihydropyridin-3-yl)amino)-1H-imidazo[4,5-b]pyridin-6-yl)oxy)pyridin-2-yl)acetamide]"

# Target: T1, JAK2 (JH1domain-catalytic, Y1007F,Y1008F) kinase
# Test: biochemical
# Conditions: not given
row,Kd,Compound
1,50 to 1000 nM,"Cn1c(Nc2cc(C(C)(C)C)on2)nc2ccc(Oc3ccnc(NC(=O)[C@H]4CC4(F)F)c3)cc21 (single isomer, unassigned) [Example I-50-a]"
2,50 to 1000 nM,"Cn1c(Nc2cc(C(C)(C)C)on2)nc2ccc(Oc3ccnc(NC(=O)[C@@H]4CC4(F)F)c3)cc21 (single isomer, unassigned) [Example I-50-b]"
3,50 to 1000 nM,"CC(=O)Nc1cc(Oc2ccc3nc(Nc4cc(C(F)(F)F)cn(C[C@H]5COCCO5)c4=O)n(C)c3c2)ccn1 (single isomer, unassigned) [Example I-58-b]"
4,10 to 50 nM,"CO[C@@H]1CCOC[C@H]1n1cc(C(F)(F)F)cc(Nc2nc3ccc(Oc4ccnc(NC(C)=O)c4)cc3n2C)c1=O (single isomer, unassigned) [Example I-59-a]"
5,10 to 50 nM,"CO[C@H]1CCOC[C@@H]1n1cc(C(F)(F)F)cc(Nc2nc3ccc(Oc4ccnc(NC(C)=O)c4)cc3n2C)c1=O (single isomer, unassigned) [Example I-59-b]"
6,10 to 50 nM,"CO[C@H]1CCOC[C@H]1n1cc(C(F)(F)F)cc(Nc2nc3ccc(Oc4ccnc(NC(C)=O)c4)cc3n2C)c1=O (single isomer, unassigned) [Example I-60-a]"
7,< 10 nM,"CO[C@@H]1CCOC[C@@H]1n1cc(C(F)(F)F)cc(Nc2nc3ccc(Oc4ccnc(NC(C)=O)c4)cc3n2C)c1=O (single isomer, unassigned) [Example I-60-b]"
8,< 10 nM,"CC(=O)Nc1cc(Oc2ccc3nc(Nc4cc(C5CC5)cn([C@@H]5CCCOC5)c4=O)n(C)c3n2)ccn1 (single isomer, unassigned) [Example I-67-a]"
9,< 10 nM,"CC(=O)Nc1cc(Oc2ccc3nc(Nc4cc(C5CC5)cn([C@H]5CCCOC5)c4=O)n(C)c3n2)ccn1 (single isomer, unassigned) [Example I-67-b]"
10,< 10 nM,"CO[C@@H]1CC[C@@H]1Cn1cc(C2CC2)cc(Nc2nc3ccc(Oc4ccnc(NC(C)=O)c4)cc3n2C)c1=O (single isomer, unassigned) [Example I-76-a]"
11,< 10 nM,"CC(=O)Nc1cc(Oc2ccc3nc(Nc4cc(C5CC5)cn(C[C@H]5CC[C@H]5O)c4=O)n(C)c3c2)ccn1 (single isomer, unassigned) [Example I-77-a]"
12,< 10 nM,"CC(=O)Nc1cc(Oc2ccc3nc(Nc4cc(C5CC5)cn(C[C@@H]5CC[C@@H]5O)c4=O)n(C)c3c2)ccn1 (single isomer, unassigned) [Example I-77-b]"
13,< 10 nM,"CC(=O)Nc1cc(Oc2ccc3nc(Nc4cc(C5CC5)cn([C@@H]5CC[C@@H]5O)c4=O)n(C)c3c2)ccn1 (single isomer, unassigned) [Example I-78-a]"
14,10 to 50 nM,"CC(=O)Nc1cc(Oc2ccc3nc(Nc4cc(C5CC5)cn([C@H]5CC[C@H]5O)c4=O)n(C)c3c2)ccn1 (single isomer, unassigned) [Example I-78-b]"
15,< 10 nM,"CC(=O)Nc1cc(Oc2ccc3nc(Nc4cc(C5CC5)cn([C@@H]5CC[C@H]5O)c4=O)n(C)c3c2)ccn1 (single isomer, unassigned) [Example I-79-a]"
16,< 10 nM,"CC(=O)Nc1cc(Oc2ccc3nc(Nc4cc(C5CC5)cn([C@H]5CC[C@@H]5O)c4=O)n(C)c3c2)ccn1 (single isomer, unassigned) [Example I-79-b]"
17,50 to 1000 nM,"CC(=O)Nc1cc(Oc2ccc3nc(Nc4cc(C5CC5)nn(C[C@@H]5COC(C)(C)C5)c4=O)n(C)c3c2)ccn1 (single isomer, unassigned) [Example I-87-a]"
18,50 to 1000 nM,"CC(=O)Nc1cc(Oc2ccc3nc(Nc4cc(C5CC5)nn(C[C@H]5COC(C)(C)C5)c4=O)n(C)c3c2)ccn1 (single isomer, unassigned) [Example I-87-b]"
19,50 to 1000 nM,"CC(=O)Nc1cc(Oc2cnc3nc(Nc4cc(C(C)(C)C)n(C[C@@H]5CCN(CC(F)(F)F)C5)n4)n(C)c3c2C)ccn1 (single isomer, unassigned) [Example I-128-a]"

row,Kd,Compound
1,50 to 1000 nM,"CC(=O)Nc1cc(Oc2cnc3nc(Nc4cc(C(C)(C)C)n(C[C@H]5CCN(CC(F)(F)F)C5)n4)n(C)c3c2C)ccn1 (single isomer, unassigned) [Example I-128-b]"
2,< 10 nM,"CC(=O)Nc1cc(Oc2cnc3nc(Nc4cc(C(C)(C)C)n(C[C@@H]5COCCO5)n4)n(C)c3c2C)ccn1 (single isomer, unassigned) [Example I-129-b]"
3,< 10 nM,"Cn1c(Nc2cc(C(C)(C)C)n(C[C@H]3COCCO3)n2)nc2ncc(Oc3ccnc(NC(=O)C4CC4)c3)cc21 (single isomer, unassigned) [Example I-135-a]"
4,1000 to 5000 nM,"CC(=O)Nc1cc(Oc2cnc3nc(Nc4cc(C(C)(C)C)n(C[C@H]5CCN(C)CC5(F)F)n4)n(C)c3c2)ccn1 (single isomer, unassigned) [Example I-148-a]"
5,1000 to 5000 nM,"CC(=O)Nc1cc(Oc2cnc3nc(Nc4cc(C(C)(C)C)n(C[C@@H]5CCN(C)CC5(F)F)n4)n(C)c3c2)ccn1 (single isomer, unassigned) [Example I-148-b]"
6,10 to 50 nM,"CC(=O)Nc1cc(Oc2cnc3nc(Nc4cc(C(C)(C)C)n([C@@H]5CCC[C@@H]5O)n4)n(C)c3c2)ccn1 (single isomer, unassigned) [Example I-162-b]"
7,10 to 50 nM,"CN1CCC(n2nc(Nc3nc4ncc(Oc5ccnc(NC(=O)C6CC6)c5)cc4n3C)cc2C(C)(C)C)C1 (single isomer, unassigned) [Example I-169-b]"
8,10 to 50 nM,"COc1c(Oc2ccnc(NC(C)=O)c2)cnc2nc(Nc3cc(C(C)(C)C)n([C@H]4CN(C)CC4(F)F)n3)n(C)c12 (single isomer, unassigned) [Example I-172-b]"
9,50 to 1000 nM,"CC(=O)Nc1cc(Oc2cnc3nc(Nc4cc(C(C)(C)C)n([C@H]5CCOC5(C)C)n4)n(C)c3c2)ccn1 (single isomer, unassigned) [Example I-175-b]"
10,< 10 nM,"COc1c(Oc2ccnc(NC(=O)C3CC3)c2)cnc2nc(Nc3cc(C(C)(C)C)n(CC(C)O)n3)n(C)c12 (single isomer, unassigned) [Example I-176-a]"
11,< 10 nM,"COc1c(Oc2ccnc(NC(C)=O)c2)cnc2nc(Nc3nc([C@H]4CCOC4)c(C(C)(C)C)s3)n(C)c12 (single isomer, unassigned) [Example I-195-a]"
12,< 10 nM,"COc1c(Oc2ccnc(NC(C)=O)c2)cnc2nc(Nc3nc([C@@H]4CCOC4)c(C(C)(C)C)s3)n(C)c12 (single isomer, unassigned) [Example I-195-b]"
13,50 to 1000 nM,"CC(=O)Nc1cc(Oc2ccc3nc(Nc4ccc(Cl)c(C(F)(F)F)c4)n(C)c3c2)ccn1 [Example I-4, N-(4-((2-((4-chloro-3-(trifluoromethyl)phenyl)amino)-1-methyl-1H-benzo[d]imidazol-6-yl)oxy)pyridin-2-yl)acetamide]"
14,10 to 50 nM,"CC(=O)Nc1cc(Oc2ccc3nc(Nc4ccc(Cl)c(C(F)(F)F)c4)n(C)c3c2C)ccn1 [Example I-5, N-(4-((2-((4-chloro-3-(trifluoromethyl)phenyl)amino)-1,7-dimethyl-1H-benzo[d]imidazol-6-yl)oxy)pyridin-2-yl)acetamide]"
15,50 to 1000 nM,"COC1CN(c2cc(Nc3nc4ccc(Oc5ccnc(NC(C)=O)c5)cc4n3C)cc(C(F)(F)F)c2)C1 [Example I-7, N-(4-((2-((3-(3-methoxyazetidin-1-yl)-5-(trifluoromethyl)phenyl)amino)-1-methyl-1H-benzo[d]imidazol-6-yl)oxy)pyridin-2-yl)acetamide]"
16,50 to 1000 nM,"CC(=O)Nc1cc(Oc2ccc3nc(Nc4ccc(C(C)(C)C#N)cc4)n(C)c3c2)ccn1 [Example I-8, N-(4-((2-((4-(2-cyanopropan-2-yl)phenyl)amino)-1-methyl-1H-benzo[d]imidazol-6-yl)oxy)pyridin-2-yl)acetamide]"
17,50 to 1000 nM,"CC(=O)Nc1cc(Oc2ccc3nc(Nc4ccc(Cc5cn[nH]c5)c(C(F)(F)F)c4)n(C)c3c2)ccn1 [Example I-10, N-(4-((2-((4-((1H-pyrazol-4-yl)methyl)-3-(trifluoromethyl)phenyl)amino)-1-methyl-1H-benzo[d]imidazol-6-yl)oxy)pyridin-2-yl)acetamide]"
18,10 to 50 nM,"COCc1c(OC)cc(Nc2nc3ccc(Oc4ccnc(NC(C)=O)c4)cc3n2C)cc1C(F)(F)F [Example I-11, N-(4-((2-((3-methoxy-4-(methoxymethyl)-5-(trifluoromethyl)phenyl)amino)-1-methyl-1H-benzo[d]imidazol-6-yl)oxy)pyridin-2-yl)acetamide]"
19,10 to 50 nM,"CCN1CCN(Cc2ccc(Nc3nc4ccc(Oc5ccnc(C(=O)NC)c5)cc4n3C)cc2C(F)(F)F)CC1 [Example I-15, 4-((2-((4-((4-ethylpiperazin-1-yl)methyl)-3-(trifluoromethyl)phenyl)amino)-1-methyl-1H-benzo[d]imidazol-6-yl)oxy)-N-methylpicolinamide]"
